Experimental data: US20200061212A1, “SOLID ORAL COMPOSITION CONTAINING DYES” (COSMO TECHNOLOGIES LTD., priority 2016, published 2020)

The chains behind the UniProt entries cited, without tags or fusion partners. Where a name states a change or a piece, a line headed by the entry shows the natural chain unless it says otherwise.
UniProt Q8TCC7: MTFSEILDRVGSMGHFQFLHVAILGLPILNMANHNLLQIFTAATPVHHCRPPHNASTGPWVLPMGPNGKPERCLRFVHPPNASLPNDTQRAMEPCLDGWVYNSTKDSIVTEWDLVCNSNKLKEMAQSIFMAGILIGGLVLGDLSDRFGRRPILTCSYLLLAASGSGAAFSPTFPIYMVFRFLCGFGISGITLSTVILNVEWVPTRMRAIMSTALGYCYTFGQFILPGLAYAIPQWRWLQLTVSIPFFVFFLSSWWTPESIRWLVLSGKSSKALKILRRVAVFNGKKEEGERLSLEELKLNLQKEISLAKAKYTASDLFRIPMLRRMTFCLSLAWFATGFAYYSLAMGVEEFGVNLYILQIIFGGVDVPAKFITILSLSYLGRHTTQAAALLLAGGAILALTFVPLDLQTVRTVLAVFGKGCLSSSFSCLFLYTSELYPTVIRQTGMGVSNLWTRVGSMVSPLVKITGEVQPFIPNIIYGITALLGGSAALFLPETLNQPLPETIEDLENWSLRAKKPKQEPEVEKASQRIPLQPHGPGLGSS

Target: OAT3 (Homo sapiens, UniProt Q8TCC7)
Conditions: in vitro studies

- substrate of the membrane transport protein OAT3: possible substrate
Structure (SMILES): CN(C)c1ccc2nc3ccc(=[N+](C)C)cc-3sc2c1 [Methylene blue, Methylthioninium Chloride (Methylene Blue)]
